Source: EP0139891A2, “Pharmaceutical compositions with antibiotic-immunostimulating activity” (B.T.B. INDUSTRIA CHIMICA S.p.A., priority 1983, dated 1985)

System: rats
Test: Acute toxicity after oral administration
Format: in vivo
Details: rat

Question: With “salt of erythromycin propionate with inosine-5-phosphoric acid in the molar ratio 2:1 [F.F.001]” as the substance, how does the LD50 read?
Answer: > 6000 mg/kg
